Reference: publication PMC3437384

Target: cardiac troponin I (cTnI), rat wild type (rat) (UniProt P23693)
Assay: ITC

Row | stoichiometry N | dH | Substance
1 | 1 | – | cardiac troponin C L48Q variant, cTnC(L48Q) (from UniProt Q4PP99 1-161) (natural protein)
2 | 1 | -3.85 kcal/mol | cardiac troponin C (cTnC), rat wild type (from UniProt Q4PP99 1-161) (natural protein)
